These are literature values, as cited in patent US12174205B2, “Phosphatidylethanolamine-specific probes” (Northwestern University, priority 2014, dated 2024).

For this data set the following is noted: at micromolar concentration: membrane distortion, PE translocation.

Consider Duramycin, for which the cytotoxicity result is reported as “exhibit cytotoxicity”.
